{
  "source": "paper PMC8745710",
  "about": "“Biological Evaluation and Molecular Docking Studies of Novel 1,3,4-Oxadiazole Derivatives of 4,6-Dimethyl-2-sulfanylpyridine-3-carboxamide” (International Journal of Molecular Sciences, 2022)",
  "tested_on": "LoVo cell line",
  "test": "Intracellular ROS level (DCFH-DA), LoVo cells",
  "type": "cell-based",
  "settings": "Homo sapiens, 4 h, compound 100 μM, without H2O2, n = 5, read-out: ROS scavenging activity, Mean E/E0 ± SD, without H2O2",
  "protocol": "Two cell lines were chosen for investigations: V79 (Chinese hamster lung fibroblasts) and LoVo. V79 normal cells are widely used as the cell line tested in the studies of the oxidative stress. These cells are a living system model to explain the mechanism of ROS effects caused by varied compounds [73].\nFirst, the tested compounds (in concentration of 100 μM) were added to the cell cultures and cells were incubated for 4 h. Then cells were washed and incubated with DCFH-DA (non-fluorescent probe) in dark at 37 °C for 2 h at CO2 [79]. Non-fluorescent, non-polar DCFH-DA (2′7′-dichlorodihydrofluorescein diacetate) at concentration of 25 μM was used as a marker of oxidative stress to determine the intracellular ROS levels. […] In this time, DCFH-DA which penetrated into the cells, was hydrolyzed by esterases to polar, non-fluorescent DCFH (2′7′-dichlorodihydrofluorescein) and then oxidized in the presence of ROS (reactive oxygen species) to fluorescent DCF (2′7′-dichlorofluorescein). […] Then results were presented as E/E0 where E is test sample value and E0—control value.\nAll results in Tables are presented as mean ± SEM (standard error of the mean) relative to the control (E/E0). E is the culture with the tested compound and E0 is the negative control without the compound. The routine statistical methods: two-way analysis of variance ANOVA as well as Tukey’s post-hoc test were used. […]",
  "data": [
    {"smiles": "Cc1cnc(NC(=O)C2=C(O)c3ccccc3S(=O)(=O)N2C)s1", "note": "[Meloxicam, meloxicam, reference compound]", "values": [
      {"measurement": "activity at 100 µM", "result": "106 ± 32", "unit": "%"}
    ]}
  ]
}
